Assay results published in US8674100B2, “Inhibitors of C-FMS kinase” (Janssen Pharmaceutica, N.V., priority 2006, dated 2014).

By UniProt entry, the sequences of proteins in these tests, tags left out. Residues count along the entry.
UniProt P07333, 20-972: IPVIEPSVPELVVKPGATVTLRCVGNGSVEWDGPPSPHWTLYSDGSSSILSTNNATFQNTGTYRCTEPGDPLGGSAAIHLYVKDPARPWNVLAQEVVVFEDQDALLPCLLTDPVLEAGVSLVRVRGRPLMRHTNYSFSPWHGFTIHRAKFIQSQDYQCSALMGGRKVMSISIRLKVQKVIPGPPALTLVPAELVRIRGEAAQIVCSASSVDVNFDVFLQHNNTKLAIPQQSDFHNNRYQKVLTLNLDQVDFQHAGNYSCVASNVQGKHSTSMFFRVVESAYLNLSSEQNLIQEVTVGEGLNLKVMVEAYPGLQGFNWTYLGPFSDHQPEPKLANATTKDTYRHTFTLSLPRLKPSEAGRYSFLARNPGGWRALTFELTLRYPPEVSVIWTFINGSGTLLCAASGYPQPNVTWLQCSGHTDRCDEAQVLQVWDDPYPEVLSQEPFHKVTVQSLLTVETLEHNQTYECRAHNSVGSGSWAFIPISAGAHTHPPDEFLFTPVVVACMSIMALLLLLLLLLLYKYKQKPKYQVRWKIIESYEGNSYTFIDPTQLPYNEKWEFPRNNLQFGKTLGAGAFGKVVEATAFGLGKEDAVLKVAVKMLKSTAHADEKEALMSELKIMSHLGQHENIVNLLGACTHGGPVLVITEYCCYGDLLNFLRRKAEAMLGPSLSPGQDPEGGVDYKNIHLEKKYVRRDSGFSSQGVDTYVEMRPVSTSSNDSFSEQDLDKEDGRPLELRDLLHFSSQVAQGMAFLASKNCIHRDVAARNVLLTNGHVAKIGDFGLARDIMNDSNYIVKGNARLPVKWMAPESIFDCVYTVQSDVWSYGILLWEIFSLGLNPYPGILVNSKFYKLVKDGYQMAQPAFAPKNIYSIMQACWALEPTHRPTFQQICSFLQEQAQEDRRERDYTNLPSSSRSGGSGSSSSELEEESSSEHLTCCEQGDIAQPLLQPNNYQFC

Target: CSF-1R (c-fms) (Homo sapiens (Human), UniProt P07333)
Experiment: Fluorescence polarization competition immunoassay (1 nM c-fms; peptide Pi assay)
Assay type: biochemical
Conditions: read-out: 1 nM c-fms; peptide Pi assay - IC-50

Question: For `N#Cc1c[nH]c(C(=O)Nc2ccc(C(CO)CO)cc2C2=CCCCC2)n1` [Example 11, 4-Cyano-1H-imidazole-2-carboxylic acid [2-cyclohex-1-enyl-4-(2-hydroxy-1-hydroxymethyl-ethyl)-phenyl]-amide], which IC50 is on record?
Answer: > 60 nM
